Patent publication US12023388B2, “Detection and treatment of caries and microcavities with nanoparticles” (THE REGENTS OF THE UNIVERSITY OF MICHIGAN, priority 2015, dated 2024)

Columns and labels:
[1] = Zeta potential analysis (Malvern ZetaSizer); assay type: physicochemical
From the text: (§1) Starch nanoparticle samples 1-6 are dispersed at 0.025% solids and analyzed by various particle characterization techniques, including zeta potential and DLS analysis using a Malvern ZetaSizer, and Nanoparticle Tracking Analysis (NTA) using a NanoSight NS300.

[2] = Particle size analysis (DLS, NTA); assay type: physicochemical
From the text: as §1

Substance: FITC-dextran
- zeta potential [1]: approximately +6 mV
- particle size [2]: approximately 100 nm
